## Curated experimental data: properties

From the experimental data distributed with OPERA 2.9.

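These are experimental values that the OPERA curators gathered from public databases to train and test their QSAR models. One number stands for a compound and property, with no spread given. Conditions of the individual experiments are not part of the data. The measured form (salt, isomer or mixture) is not always the one drawn. Some entries may be limits or estimates that an upstream database listed as plain numbers.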

Melting points are in °C.
The boiling point refers to atmospheric pressure (760 mmHg), by the definition of the set.
logP is the log10 of the octanol-water partition coefficient; higher is more lipophilic.
Solubility in water is on a log10 molar scale (set defined at 25 °C).
Vapor pressures (log10 mmHg) refer to near room temperature, 15 to 30 °C; higher is more volatile.
The unbound fraction in human plasma runs from 0 (all bound) to 1 (all free).
Clint is human hepatic intrinsic clearance in µL/min per million cells; 0 means that no clearance was seen.
Cells with "n/a" have no entry in this list.

SMILES | name | mp (°C) | bp (°C) | logP | water solubility (log10 mol/L) | log VP (log10 mmHg) | fraction unbound | hepatic Clint (µL/min/10^6 cells)
CCOC(=O)C(CC)C(=O)OCC | Diethyl ethylpropanedioate | n/a | n/a | 2.4 | -1.77 | n/a | n/a | n/a
C=C(C)CC1CCCCCCCCCCC1=O (stereo not drawn) | 2-(2-Methylprop-2-en-1-yl)cyclododecan-1-one | -66 | 320.1 | n/a | -5.17 | -3.401 | n/a | n/a
CC(C)CCCCCCCCCCCCCCC(=O)OCC(O)COCC(O)COC(=O)CCCCCCCCCCCCCCC(C)C (stereo not drawn) | Di(isooctadecanoic) acid, diester with oxydi(propanedio | -10 | n/a | n/a | -5.367 | -5.41 | n/a | n/a
CCCCOP(C)(=O)CCC(C#N)OC(C)=O (stereo not drawn) | n/a | -62.7 | n/a | 1.2 | n/a | n/a | n/a | n/a
CCCCCCCC(=O)NCC(=O)O | Glycine, N-(1-oxooctyl)- | 110 | n/a | 2.052 | -2.112 | n/a | n/a | n/a
Cc1ccc(S(=O)(=O)Nc2cc(S(=O)(=O)[O-])cc3cc(S(=O)(=O)[O-])c(/N=N/c4ccc(Oc5ccccc5C)cc4Oc4ccccc4C)c(O)c23)cc1.[Na+].[Na+] | n/a | n/a | n/a | -0.994 | -2.567 | n/a | n/a | n/a
CC1(C)CC[C@H]2O[C@]23C(C)(C)[C@H]2CC[C@@]13C2 | n/a | -1 | n/a | n/a | n/a | -1.965 | n/a | n/a
CC(=O)C[C@@H]1O[C@H](COC(C)=O)[C@@H](OC(C)=O)[C@H](OC(C)=O)[C@H]1OC(C)=O | 2,3,4,6-Tetra-O-acetyl-beta-D-glucopyranosyl acetate | n/a | n/a | 0.63 | -2.635 | n/a | n/a | n/a
CN(C/C=C/c1ccccc1)Cc1cccc2ccccc12 | Naftifine | n/a | n/a | 5.4 | -6.099 | n/a | n/a | n/a
O=C1CCCCCCCCCCOCCCCO1 | 12-Oxahexadecanolide | -27.1 | n/a | n/a | -4.018 | -3.476 | n/a | n/a
CCCC1CCC(=O)CC1 | 4-Propylcyclohexanone | -40.5 | n/a | 2.62 | -1.855 | -0.754 | n/a | n/a
COc1ccc(C(OC)OC)cc1 | p-(Dimethoxymethyl)anisole | n/a | n/a | 2.01 | n/a | -1.743 | n/a | n/a
COC(=O)CCCCCCCCC(=O)OC | Dimethyl decanedioate | n/a | n/a | 3.38 | n/a | -3.222 | n/a | n/a
N[C@@H](CCSC[C@H](N)C(=O)O)C(=O)O | S-(2-Amino-2-carboxyethyl)homocysteine | 312 | n/a | n/a | -1.004 | n/a | n/a | n/a
COc1ccccc1NC(=O)c1cc2ccccc2c(N=Nc2cc(Cl)ccc2Cl)c1O | n/a | 265 | n/a | n/a | -8.465 | n/a | n/a | n/a
Cc1ccc(N)cc1S(=O)(=O)O | 5-Amino-2-methylbenzenesulfonic acid | n/a | n/a | 0.65 | -1.818 | n/a | n/a | n/a
C=CC(=O)OCCCCCCCCCCCCCCCCCC | Stearyl acrylate | n/a | n/a | 6.8 | -7.21 | -5.37 | n/a | n/a
CC(C)C(=O)OC(=O)C(C)C | Isobutyric anhydride | n/a | n/a | 1.1 | n/a | -0.19 | n/a | n/a
CN(CCO)S(=O)(=O)C(F)(F)C(F)(F)C(F)(F)C(F)(F)F | 2-(N-(Perfluorobutylsulfonyl)-N-methylamino)ethanol | 64.8 | n/a | n/a | -3.404 | -4.523 | n/a | n/a
CCCCCCCCCCCC(=O)OCC(C)(C)C=Nc1ccc(N=CC(C)(C)COC(=O)CCCCCCCCCCC)cc1 | n/a | 13 | n/a | n/a | n/a | -4.458 | n/a | n/a
CCCCCCCCCCCC(=O)OCCCCCC | Hexyl laurate | -6 | n/a | n/a | -6.755 | n/a | n/a | n/a
Cc1c(C#N)sc(N)c1C#N | 5-Amino-3-methyl-2,4-thiophenedicarbonitrile | 225.1 | n/a | 1.84 | -3.175 | -7.846 | n/a | n/a
O=C(O)CC[C@@H](C(=O)O)N1C(=O)c2ccccc2C1=O | L-2-Phthalimidoglutaric acid | n/a | n/a | 0.45 | n/a | -4.614 | n/a | n/a
C=CC(=O)NCCC[Si](O[Si](C)(C)C)(O[Si](C)(C)C)O[Si](C)(C)C | N-[3-[Tris(trimethylsiloxy)silyl]propyl]acrylamide | n/a | 301 | 5.5 | -7.148 | -5.674 | n/a | n/a
CCCCCCCCCCCCCCCC(=O)OCCCCCCCCCCCCCCCC(C)C | Hexadecanoic acid, isooctadecyl ester | -12 | n/a | n/a | -7.008 | n/a | n/a | n/a
CCCCCCCCCCCCN(CCCN)CCCN | N-(3-Aminopropyl)-N-dodecylpropane-1,3-diamine | 9.25 | n/a | n/a | n/a | -6.184 | n/a | n/a
CC(=O)OC1CCCCC1C (stereo not drawn) | 2-Methylcyclohexyl acetate | -31.6 | n/a | 2.75 | -2.55 | 0.106 | n/a | n/a
CCCn1c(=O)[nH]c(=O)c2[nH]cnc21 | Enprofylline | n/a | n/a | n/a | -1.534 | n/a | 0.4253 | n/a
O=P(OCCCl)(OCCCl)OCC(CCl)(CCl)COP(=O)(OCCCl)OCCCl | n/a | 50.5 | n/a | 2.83 | n/a | n/a | n/a | n/a
CC(C)CCCC(C)(C)O | 2,6-Dimethyl-2-heptanol | n/a | n/a | n/a | -2.287 | -0.701 | n/a | n/a
CC(C)c1cc(C(C)C)c(N=C=Nc2c(C(C)C)cc(C(C)C)cc2C(C)C)c(C(C)C)c1 | N,N'-bis(2,4,6-Triisopropylphenyl)methanediimine | -40.4 | n/a | n/a | -8.354 | n/a | n/a | n/a
CC1=CC(=O)/C(=C(/C)[O-])C(=O)O1.[Na+] | Sodium dehydroacetate | n/a | n/a | n/a | n/a | n/a | 0.062 | 0
COc1cc(Cl)c(Cl)cc1O | 4,5-Dichloroguaiacol | 72 | n/a | n/a | -2.53 | n/a | n/a | n/a
CCC[C@@H]1CC[C@@H](c2ccc(-c3cc(F)c(C(F)(F)Oc4cc(F)c(F)c(F)c4)c(F)c3)cc2)OC1 (relative stereo) | n/a | 74.6 | n/a | n/a | -6.785 | -9.21 | n/a | n/a
O=C1Oc2cc3c(cc2=C1c1ccccc1)OC(=O)C=3c1ccc(OCC2CCCO2)cc1 (stereo not drawn) | n/a | n/a | n/a | n/a | -6.343 | -5.438 | n/a | n/a

The last 3 entries again:

SMILES | name | mp (°C) | bp (°C) | logP | water solubility (log10 mol/L) | log VP (log10 mmHg) | fraction unbound | hepatic Clint (µL/min/10^6 cells)
COc1cc(Cl)c(Cl)cc1O | 4,5-Dichloroguaiacol | 72 | n/a | n/a | -2.53 | n/a | n/a | n/a
CCC[C@@H]1CC[C@@H](c2ccc(-c3cc(F)c(C(F)(F)Oc4cc(F)c(F)c(F)c4)c(F)c3)cc2)OC1 (relative stereo) | n/a | 74.6 | n/a | n/a | -6.785 | -9.21 | n/a | n/a
O=C1Oc2cc3c(cc2=C1c1ccccc1)OC(=O)C=3c1ccc(OCC2CCCO2)cc1 (stereo not drawn) | n/a | n/a | n/a | n/a | -6.343 | -5.438 | n/a | n/a